This note sets out measurements from PubChem BioAssay (Tox21).

Protein sequences, listed by entry. Tags and fused reporters are not part of them.
UniProt P11473, whole entry: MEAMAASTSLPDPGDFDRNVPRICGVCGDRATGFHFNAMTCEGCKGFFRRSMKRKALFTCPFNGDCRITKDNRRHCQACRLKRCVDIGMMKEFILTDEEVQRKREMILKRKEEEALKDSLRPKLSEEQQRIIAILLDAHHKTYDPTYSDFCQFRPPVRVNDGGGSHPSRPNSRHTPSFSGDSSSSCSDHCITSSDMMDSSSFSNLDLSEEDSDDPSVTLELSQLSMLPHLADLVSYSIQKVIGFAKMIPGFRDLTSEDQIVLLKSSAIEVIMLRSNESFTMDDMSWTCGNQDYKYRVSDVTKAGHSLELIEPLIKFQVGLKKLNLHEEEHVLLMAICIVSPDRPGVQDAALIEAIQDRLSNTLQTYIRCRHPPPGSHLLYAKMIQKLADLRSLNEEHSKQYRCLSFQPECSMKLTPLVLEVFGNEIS
UniProt P19793, whole entry: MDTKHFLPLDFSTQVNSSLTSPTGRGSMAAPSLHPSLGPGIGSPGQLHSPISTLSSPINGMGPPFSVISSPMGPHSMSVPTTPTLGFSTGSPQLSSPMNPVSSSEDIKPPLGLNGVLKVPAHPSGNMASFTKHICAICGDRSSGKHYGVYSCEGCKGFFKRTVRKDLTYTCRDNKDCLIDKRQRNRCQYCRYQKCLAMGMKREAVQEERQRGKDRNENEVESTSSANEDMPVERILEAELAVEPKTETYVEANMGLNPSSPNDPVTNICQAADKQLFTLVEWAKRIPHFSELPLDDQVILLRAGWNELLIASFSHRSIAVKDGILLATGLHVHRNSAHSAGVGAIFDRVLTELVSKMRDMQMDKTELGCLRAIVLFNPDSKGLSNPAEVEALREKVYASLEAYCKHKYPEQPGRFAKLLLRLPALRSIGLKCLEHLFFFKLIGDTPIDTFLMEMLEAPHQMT

Where “and” joins values, the source holds several entries; their conditions need not be identical. Identical values can stand only once. This is a selection; strong and weak results do not stand in their true shares. Results filed as inconclusive are left out. Calls of active or inactive are those of the source. Unless noted, calls follow the shape of the dose curve; as a rule, active = well fitted curve in the direction sought with a large enough effect in the repeat runs; inconclusive = weak or mixed curves; inactive = no such curve, though single readings can be large; an effect the other way counts as inactive or inconclusive.

Test [1] is described as follows: qHTS assay to identify small molecule agonists of the farnesoid-X-receptor (FXR) signaling pathway - cell viability counter screen (AID 743218). Also: % is scaled to controls: 0 for no effect and ±100 for the full control effect; nearly all actives have a fitted effect of over 45% in size. Particulars: FXR-bla HEK293T viability, CellTiter-Glo luminescence, 16 h. A digest of the protocol:
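HEK 293T FXR-bla cells; 5 h pre-incubation, 16 h compound exposure at 37 C; LiveBLAzer substrate 2 h RT, then CellTiter-Glo 30 min RT, luminescence.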
(In general: qHTS replaces the single test concentration by a dilution series.)

Test [2] can be described thus: qHTS assay to identify small molecule antagonists of the farnesoid-X-receptor (FXR) signaling pathway - cell viability counter screen (AID 743221; active = well fitted cell-killing curve with a large enough effect in the repeat runs, not every such curve was filed as active; also: % is scaled to controls: 0 for no effect and ±100 for the full control effect; nearly all actives have a fitted effect of over 50% in size). Particulars: FXR-bla HEK293T viability, CellTiter-Glo luminescence, 16 h. The procedure, abridged: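 Cytotoxicity is taken from ATP luminescence (CellTiter-Glo, 30 min, room temperature) in FXR-bla HEK 293T cells previously incubated 16 h at 37 C with compound and chenodeoxycholic acid at 50 uM final.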

Test [3] deals with Vitamin D3 receptor (Homo sapiens) (UniProt P11473). The test can be described thus: qHTS assay to identify small molecule agonists of the vitamin D receptor (VDR) signaling pathway (AID 743222; calls by dose curve; also: % is scaled to controls: 0 for no effect and ±100 for the full control effect). Particulars: HEK293T VDR-UAS-bla, beta-lactamase FRET ratio, 16 h. A digest of the protocol:
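VDR-bla cells, 2,000/well; 4 h preincubation 37C; cpd (DMSO) 16 h; LiveBLAzer B/G substrate 2 h RT; fluorescence intensity read.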

For test [4] the target is unchanged. The test can be described thus: qHTS assay to identify small molecule antagonists of the vitamin D receptor (VDR) signaling pathway (AID 743223; active = well fitted inhibition curve with a large enough effect in the signal ratio in the repeat runs, not every such curve was filed as active; the % refers to the signal ratio; also: % is scaled to controls: 0 for no effect and ±100 for the full control effect). Particulars: VDR-UAS-bla HEK293T, beta-lactamase FRET ratio, 16 h. The procedure, abridged:
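Quantitative HTS in VDR-bla reporter cells stimulated with 1alpha,25-dihydroxyvitamin D3, 3 nM final. Compound exposure 16 h, 37C, 5% CO2. Read-out: beta-lactamase FRET substrate fluorescence, 2 h RT.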

Test [5] in a line: qHTS assay to identify small molecule agonists of the vitamin D receptor (VDR) signaling pathway - cell viability counter screen (AID 743224). Also: % is scaled to controls: 0 for no effect and ±100 for the full control effect; nearly all actives have a fitted effect of over 50% in size. Particulars: VDR-bla HEK293T viability, CellTiter-Glo luminescence, 16 h. A digest of the protocol:
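Luminescence from CellTiter-Glo, read after 30 min at room temperature, reports viability of VDR-bla cells treated with compounds for 16 h at 37C in the wells used for the beta-lactamase FRET read.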

Test [6] can be described thus: qHTS assay to identify small molecule antagonists of the vitamin D receptor (VDR) signaling pathway - cell viability counter screen (AID 743225). Also: % is scaled to controls: 0 for no effect and ±100 for the full control effect; nearly all actives have a fitted effect of over 50% in size. Particulars: VDR-bla HEK293T viability, CellTiter-Glo luminescence, 16 h. A digest of the protocol:
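Same-well multiplex: following 16 h treatment of HEK 293T cells carrying a UAS-driven beta-lactamase reporter with compound and agonist (3 nM final), and a 2 h FRET substrate step, CellTiter-Glo was added and luminescence read after 30 min.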

Test [7] is described as follows: qHTS assay to identify small molecule agonists of the NFkB signaling pathway (AID 1159509; active = well fitted curve in the direction sought with a large enough effect in the signal ratio in the repeat runs, not every such curve was filed as active; the % refers to the signal ratio; also: % is scaled to controls: 0 for no effect and ±100 for the full control effect). Particulars: NFkB-bla ME-180 cells, beta-lactamase FRET ratio, 5 h. The procedure, abridged:
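NFkB-bla ME-180 cells carry a beta-lactamase reporter under an NF-kB response element. They were plated overnight, then exposed to compounds for 5 h at 37 C. Read-out is LiveBLAzer FRET after 1.5 hr at room temperature (405 nm excitation; 460/530 nm emission).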

Test [8] can be described thus: qHTS assay to identify small molecule agonists of the NFkB signaling pathway - cell viability counter screen (AID 1159515; calls by dose curve; also: % is scaled to controls: 0 for no effect and ±100 for the full control effect; nearly all actives have a fitted effect of over 55% in size). Particulars: NFkB-bla ME-180 viability, CellTiter-Glo luminescence, 5 h. A digest of the protocol: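 Luminescence from CellTiter-Glo (30 min, room temperature) gives viability, measured in the same wells as the beta-lactamase reporter read. Cells were NFkB-bla ME-180, 2,000 per well, treated 5 hr with compounds.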

Test [9] can be described thus: qHTS assay to identify small molecule agonists of the endoplasmic reticulum stress response signaling pathway (AID 1159516; active = well fitted activation curve with a large enough effect in the signal ratio in the repeat runs, not every such curve was filed as active; the % refers to the signal ratio; also: % is scaled to controls: 0 for no effect and ±100 for the full control effect). Particulars: ESRE-bla HeLa, ER stress beta-lactamase reporter, 5 h. The procedure, abridged: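 Read-out is beta-lactamase cleavage of a FRET substrate (405 nm excitation; 460 and 530 nm emissions) in ESRE-bla HeLa cells after a 5 hr compound exposure at 37 C. Substrate incubation ran 2 hr at room temperature.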

Test [10] is described as follows: qHTS assay to identify small molecule agonists of the endoplasmic reticulum stress response signaling pathway - cell viability counter screen (AID 1159517; calls by dose curve; also: % is scaled to controls: 0 for no effect and ±100 for the full control effect; nearly all actives have a fitted effect of over 50% in size). Particulars: ESRE-bla HeLa viability, CellTiter-Glo luminescence, 5 h. The procedure, abridged:
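ESRE-bla HeLa cells, 1,500 per well, seeded overnight then treated with compounds for 5 hr at 37 C. After the beta-lactamase read, viability in the same wells is measured by CellTiter-Glo luminescence after 30 min at room temperature.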

A short description of test [11]: qHTS assay to identify small molecule antagonists of the retinoid-related orphan receptor gamma (ROR-gamma) signaling pathway - cell viability counter screen (AID 1159520). Particulars: Tet-on RORgamma CHO cells viability, ATP luminescence, 16 h; at 92.4 µM (top of the series) unless noted. A digest of the protocol: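 Tet-on ROR gamma CHO cells were given compounds for 2 hr, then doxycycline hyclate at 1 uM final, and incubated 16 hr at 37 C. Viability was measured as ATP content by CellTiter-Glo luminescence.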

In test [12] the target is Nuclear receptor ROR-gamma (Homo sapiens) (UniProt P51449). Put plainly: qHTS assay to identify small molecule antagonists of the retinoid-related orphan receptor gamma (ROR-gamma) signaling pathway (AID 1159521; also: nearly all actives have a fitted effect of over 50% in size; also: potency is read from the fitted curve at half-maximal effect).
Test [13] in a line: qHTS assay to identify small molecule agonists of the AP-1 signaling pathway - cell viability counter screen (AID 1159525; calls by dose curve; also: nearly all actives have a fitted effect of over 55% in size). Particulars: ME-180 AP-1-bla cells viability, ATP luminescence, 5 h; at 76.8 µM (top of the series) unless noted. The procedure, abridged:
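AP-1-bla ME-180 cells in Opti-MEM with 0.5% dialyzed FBS, compound exposure 5 h at 37 C in 15-point titration. Viability read in the same wells as ATP content by CellTiter-Glo luminescence, normalised to tetra-n-octylammonium bromide and DMSO controls.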

The nature of test [14]: qHTS assay to identify small molecule agonists of the AP-1 signaling pathway (AID 1159526; calls by dose curve; also: % is scaled to controls: 0 for no effect and ±100 for the full control effect). Particulars: ME-180 (cervical carcinoma) AP-1-bla reporter, beta-lactamase FRET ratio, 5 h; at 76.8 µM (top of the series) unless noted.
Test [15] deals with Retinoic acid receptor RXR-alpha (Homo sapiens) (UniProt P19793). The test can be described thus: qHTS assay to identify small molecule agonists of the RXR signaling pathway (AID 1159527; calls by dose curve; also: % is scaled to controls: 0 for no effect and ±100 for the full control effect; nearly all actives have a fitted effect of over 35% in size). Particulars: HEK293T RXRa-UAS-bla, beta-lactamase ratio, 16 h; at 76.8 µM (top of the series) unless noted. The procedure, abridged:
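Compounds in DMSO were added to RXR-alpha-UAS-bla HEK 293T cells kept in 2% charcoal-stripped serum, and incubated 16 hr at 37 C with 5% CO2. Reporter signal came from a 2 hr B/G FRET substrate step.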

Test [16] in a line: qHTS assay to identify small molecule agonists of the RXR signaling pathway - cell viability counter screen (AID 1159529). Particulars: RXR-alpha-bla HEK293T viability, CellTiter-Glo, 16 h; at 76.8 µM (top of the series) unless noted. A digest of the protocol: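 Counter screen: CellTiter-Glo luminescence. Cells: RXR-alpha-UAS-bla HEK 293T. Medium: 2% charcoal-stripped FBS. Treatment: 16 h, 37 C. Reagent incubation: 30 min, RT.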

Test [17] can be described thus: qHTS assay to identify small molecule antagonists of the retinoid acid receptor (RAR) signaling pathway - cell viability counter screen (AID 1159551). Also: % is scaled to controls: 0 for no effect and ±100 for the full control effect; nearly all actives have a fitted effect of over 35% in size. Particulars: C3RL4 cells viability, ATP luminescence (CellTiter-Glo), 6 h; at 92.4 µM (top of the series) unless noted. The procedure, abridged: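 Luminescent ATP quantitation (CellTiter-Glo) gave cell viability in C3RL4 cells exposed to test chemicals for 6 h at 37 C alongside 1 uM final retinol.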

Test [18] in a line: qHTS assay to identify small molecule antagonists of the retinoic acid receptor (RAR) signaling pathway (AID 1159552). Particulars: C3RL4 RARE luciferase reporter, retinol-stimulated, 6 h; at 92.4 µM (top of the series) unless noted. The procedure, abridged:
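Antagonism of retinol-induced RARE reporter activity was measured in C3RL4 cells. Exposure to compounds and 1 uM final retinol lasted 6 hr at 37 C, with luminescence as endpoint.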

Take `ClCCOP(OCCCl)OCCCl`: the viability change, negative = cytotoxic in test [1] (at 62.6 µM (top of the series)) is inactive: 11.3%; in [1] (at 81.1 µM (top of the series)), inactive: 31.7%; in test [6] (at 61 µM (top of the series)), inactive: -0.691%; in [6] (at 78.8 µM (top of the series)), inactive: -0.376%; in test [13], inactive: 2.83% and inactive: 1.38%. Further, the activity change, negative = cytotoxicity was inactive: 10.4% in test [2] (at 62.6 µM (top of the series)); inactive: -1.28% in test [2] (at 81.1 µM (top of the series)); inactive: 0.326% in test [5] (at 62.6 µM (top of the series)); inactive: 2.09% in test [5] (at 81.1 µM (top of the series)); inactive: 18.9% in test [10] (at 61 µM (top of the series)); inactive: 7.42% in [10] (at 78.8 µM (top of the series)). The activity change, negative = cytotoxicity in [16] was inactive: -2.76% and inactive: 8.49%; in [17], inactive: -1.08% and inactive: 0.381%. In addition, the activation was inactive: 4.4% in [3] (at 63.5 µM (top of the series)); inactive: 6.29% in test [3] (at 81.1 µM (top of the series)); inactive: -0.186% in [7] (at 61 µM (top of the series)); inactive: -0.0361% in test [7] (at 78.8 µM (top of the series)); inactive: 1.2% in [9] (at 61 µM (top of the series)); inactive: 6.58% and inactive: 0.744% in test [14]. The activation in [15] is inactive: 15.4% and inactive: -4.47%. In addition, the activity change, negative = inhibition in test [4] (at 78.8 µM (top of the series)) was inactive: 23.8%. Further, the values for the activity, negative = cytotoxic in test [8] (at 61 µM (top of the series)) and in [8] (at 78.8 µM (top of the series)) were inactive: 7.06% and inactive: 12.6%, respectively. For the same compound, in [11], the activity, negative = cytotoxicity is inactive: 0.818% and inactive: 5.75%. For the same compound, the Potency entry in test [12] is “inactive”. Further, the activity, negative = inhibition in [18] is inactive: 21.6% and inactive: 12.5%.

On to `O=[N+]([O-])c1ccccc1[N+](=O)[O-]`, for which the viability change, negative = cytotoxic in [1] (at 62.6 µM (top of the series)) was inactive: 5.42%; in test [1] (at 81.1 µM (top of the series)), inactive: -12.1%; in test [13] it was inactive: 10.3% and inactive: 11.2%. Moreover, the activity change, negative = cytotoxicity in test [2] (at 62.6 µM (top of the series)) was inactive: -2.28%; in test [2] (at 81.1 µM (top of the series)), inactive: -4.59%; in [10] (at 61 µM (top of the series)), inactive: 3.55%; in test [10] (at 78.8 µM (top of the series)) it was inactive: -21%; in [16] it was inactive: -5.11% and inactive: -12.6%; in test [17] it was inactive: -1.12% and inactive: -1.13%. Moreover, the activation in [3] (at 63.5 µM (top of the series)) is inactive: -3.21%; in test [3] (at 81.1 µM (top of the series)), inactive: -16.6%; in [7] (at 61 µM (top of the series)) it was inactive: -0.486%; in test [9] (at 61 µM (top of the series)) it was inactive: -5.61%; in [9] (at 78.8 µM (top of the series)) it was inactive: -5.17%; in [14], inactive: -0.27% and inactive: -0.385%. The activity change, negative = inhibition in test [4] (at 61 µM (top of the series)) is inactive: 5.49%; in [4] (at 78.8 µM (top of the series)) it was inactive: -17.1%. For the same compound, the activity, negative = cytotoxic in [8] (at 61 µM (top of the series)) was inactive: 13.4%; in test [8] (at 78.8 µM (top of the series)) it was inactive: 16.9%. Besides, the activity, negative = cytotoxicity in [11] is inactive: -2.34% and inactive: -3.05%. The Potency in test [12] was active: 31.4 µM.
